Literature values as cited in article PMC11054906, “A Population Pharmacokinetic Study to Compare a Novel Empagliflozin L-Proline Formulation with Its Conventional Formulation in Healthy Subjects” (Pharmaceuticals, 2024).

Legend:
[1] = cited from earlier work
[2] = preclinical studies; ref data on file; cited from earlier work

Substance: Empagliflozin L-proline
- bioequivalence to conventional empagliflozin formulation ([1]; South Korea, AUClast and Cmax after single-dose administration): bioequivalent
- minimum Tmax values compared with empagliflozin ([1]; two dose strengths): larger than that of empagliflozin
- fate in the digestive system and absorbed form [2]: broken down to empagliflozin in the digestive system and be absorbed in the form of empagliflozin
